# Article PMC9773353 (ACS Omega, 2022)
# Molecular target: hCA II (Homo sapiens, UniProt P00918)
# Experiment: Carbonic anhydrase inhibition assay
# Assay type: biochemical
# Settings: text grading of Table 4 results
substance,measurement,value
"3-(3-(3,4-Dimethoxybenzoyl) thioureido) Benzoic Acid [Compound 21]",inhibition of hCA-II in words,did not show any inhibition
